Measured values: patent publication US20230157952A1, “METHOD FOR IMPROVING THE STABILITY OF A PHARMACEUTICAL COMPOSITION COMPRISING A HIGH PENETRATION DRUG, AND THE PHARMACEUTICAL COMPOSITION OBTAINED THEREFROM” (Techfields Inc., priority 2020, published 2023)

Key:
[1] = Stability of the pure HPDs (dry solid) at 25° C./RH 60%; assay type: physicochemical; details: pure HPD, 25° C./RH 60%
[2] = Effect of pH value on the stability of the solution (purity); assay type: physicochemical; details: 25° C.
[3] = day 0, pH 1.0, 7% in 25% ethanol
[4] = day 0, pH 2.0, 7% in 25% ethanol
[5] = day 0, pH 3.0, 7% in 25% ethanol
[6] = day 0, pH 3.7, 7% in 25% ethanol
[7] = day 0, pH 4.0, 7% in 25% ethanol
[8] = day 0, pH 4.3, 7% in 25% ethanol
[9] = day 0, pH 4.6, 7% in 25% ethanol
[10] = day 0, pH 5.0, 7% in 25% ethanol
[11] = day 0, pH 6.0, 7% in 25% ethanol
[12] = day 0, pH 7.0, 7% in 25% ethanol
[13] = day 0, pH 8.0, 7% in 25% ethanol
[14] = day 0, pH 1.0, 7% solution in water
[15] = day 0, pH 2.0, 7% solution in water
[16] = day 0, pH 3.0, 7% solution in water
[17] = day 0, pH 3.7, 7% solution in water
[18] = day 0, pH 4.0, 7% solution in water
[19] = day 0, pH 4.3, 7% solution in water
[20] = day 0, pH 4.6, 7% solution in water
[21] = day 0, pH 5.0, 7% solution in water
[22] = day 0, pH 6.0, 7% solution in water
[23] = day 0, pH 7.0, 7% solution in water
[24] = day 0, pH 8.0, 7% solution in water

Row | Structure (SMILES) | Purity ([1]; 3 month) | Purity ([1]; 6 month) | Purity ([1]; 12 month) | Purity ([1]; Day 0) | Purity(%) from day 0-28 [2, 3] [%] | Purity(%) from day 0-28 [2, 4] [%] | Purity(%) from day 0-28 [2, 5] [%] | Purity(%) from day 0-28 [2, 6] [%] | Purity(%) from day 0-28 [2, 7] [%] | Purity(%) from day 0-28 [2, 8] [%] | Purity(%) from day 0-28 [2, 9] [%] | Purity(%) from day 0-28 [2, 10] [%] | Purity(%) from day 0-28 [2, 11] [%] | Purity(%) from day 0-28 [2, 12] [%] | Purity(%) from day 0-28 [2, 13] [%] | Purity ([1]; 9 month) | Purity(%) from day 0-28 [2, 14] [%] | Purity(%) from day 0-28 [2, 15] [%] | Purity(%) from day 0-28 [2, 16] [%] | Purity(%) from day 0-28 [2, 17] [%] | further results
1 | CCN(CC)CCOC(=O)C(C)c1ccc(CC(C)C)cc1.Cl (racemic) [C-4, 2-(diethylamino)ethyl (R,S)-2-(p-isobutylphenyl)propionate•HCl salt] | 98.4 ± 0.2 | 98.2 ± 0.3 |  | 98.3 ± 0.1 | 98.2 ± 0.3 | 98.3 ± 0.3 | 98.5 ± 0.2 | 98.6 ± 0.3 | 98.6 ± 0.2 | 98.7 ± 0.3 | 98.6 ± 0.2 | 98.5 ± 0.3 | 98.4 ± 0.3 | 98.2 ± 0.3 | 98.0 ± 0.4 | 98.2 ± 0.1 |  |  |  |  | Purity(%) from day 0-28 ([2]; day 28, pH 4.0, 7% in 25% ethanol): 97.8 ± 0.3%; Purity(%) from day 0-28 ([2]; day 28, pH 4.3, 7% in 25% ethanol): 97.7 ± 0.2%
2 | CCN(CC)CCOC(=O)[C@H](C)c1ccc2cc(OC)ccc2c1.O=C(O)CC(O)(CC(=O)O)C(=O)O (racemic) [C-3, 2-(diethylamino)ethyl (R,S)-2-(6-methoxy-2-naphthyl) propionate•citric acid salt] | 98.3 ± 0.1 | 98.2 ± 0.3 |  | 98.4 ± 0.2 |  |  |  |  |  |  |  |  |  |  |  | 98.4 ± 0.3 | 98.0 ± 0.3 | 98.2 ± 0.4 | 98.2 ± 0.2 | 98.3 ± 0.4 | Purity(%) from day 0-28 [2, 18]: 98.4 ± 0.3%; Purity(%) from day 0-28 [2, 19]: 98.3 ± 0.4%; Purity(%) from day 0-28 [2, 20]: 98.3 ± 0.2%; Purity(%) from day 0-28 [2, 21]: 98.1 ± 0.3%; Purity(%) from day 0-28 [2, 22]: 98.1 ± 0.3%; Purity(%) from day 0-28 [2, 23]: 98.0 ± 0.3%; Purity(%) from day 0-28 [2, 24]: 98.0 ± 0.2%
3 | Br.CCN(CC)CCOC(=O)C(C)c1ccc2cc(OC)ccc2c1 (racemic) [C-2, 2-(diethylamino)ethyl (R,S)-2-(6-methoxy-2-naphthyl) propionate•HBr salt] | 98.4 ± 0.2 | 98.4 ± 0.1 | 98.2 ± 0.3 | 98.5 ± 0.1 |  |  |  |  |  |  |  |  |  |  |  |  | 98.3 ± 0.3 | 98.5 ± 0.3 | 98.6 ± 0.4 | 98.6 ± 0.3 | Purity ([1]; 12 month, listed as A-1-4): 98.4 ± 0.2; Purity ([1]; 18 month, listed as A-1-4): 98.2 ± 0.1; Purity(%) from day 0-28 [2, 18]: 98.7 ± 0.4%; Purity(%) from day 0-28 [2, 19]: 98.8 ± 0.2%; Purity(%) from day 0-28 [2, 20]: 98.7 ± 0.3%; Purity(%) from day 0-28 [2, 21]: 98.7 ± 0.2%; Purity(%) from day 0-28 [2, 22]: 98.7 ± 0.3%; Purity(%) from day 0-28 [2, 23]: 98.6 ± 0.3%; Purity(%) from day 0-28 [2, 24]: 98.5 ± 0.3%; Purity(%) from day 0-28 ([2]; day 28, pH 4.0, 7% solution in water): 97.7 ± 0.2%; Purity(%) from day 0-28 ([2]; day 28, pH 4.3, 7% solution in water): 97.8 ± 0.2%; Purity(%) from day 0-28 ([2]; day 28, pH 4.6, 7% solution in water): 97.8 ± 0.2%
4 | CC(C)Cc1ccc([C@@H](C)C(=O)OCCN(C)C)cc1.Cl (racemic) [C-5, 2-(dimethylamino)ethyl (R,S)-2-(p-isobutylphenyl)propionate•HCl salt] |  |  |  | 98.2 ± 0.1 | 98.0 ± 0.3 | 98.2 ± 0.4 | 98.3 ± 0.3 | 98.5 ± 0.4 | 98.5 ± 0.3 | 98.6 ± 0.3 | 98.5 ± 0.2 | 98.5 ± 0.3 | 98.4 ± 0.3 | 98.2 ± 0.3 | 98.0 ± 0.3 | 98.2 ± 0.1 |  |  |  |  | 

Continued, in another order:

Row | Purity ([1]; 3 month) | Purity ([1]; 6 month) | Purity ([1]; 12 month) | Purity ([1]; Day 0) | Purity(%) from day 0-28 [2, 3] [%] | Purity(%) from day 0-28 [2, 4] [%] | Purity(%) from day 0-28 [2, 5] [%] | Purity(%) from day 0-28 [2, 6] [%] | Purity(%) from day 0-28 [2, 7] [%] | Purity(%) from day 0-28 [2, 8] [%] | Purity(%) from day 0-28 [2, 9] [%] | Purity(%) from day 0-28 [2, 10] [%] | Purity(%) from day 0-28 [2, 11] [%] | Purity(%) from day 0-28 [2, 12] [%] | Purity(%) from day 0-28 [2, 13] [%] | Purity ([1]; 9 month) | Purity(%) from day 0-28 [2, 14] [%] | Purity(%) from day 0-28 [2, 15] [%] | Purity(%) from day 0-28 [2, 16] [%] | Purity(%) from day 0-28 [2, 17] [%] | Structure (SMILES) | further results
5 | 98.2 ± 0.1 | 98.2 ± 0.2 | 98.2 ± 0.3 | 98.3 ± 0.2 | 97.8 ± 0.4 | 98.1 ± 0.3 | 98.3 ± 0.3 | 98.5 ± 0.2 | 98.6 ± 0.3 | 98.5 ± 0.3 | 98.5 ± 0.2 | 98.4 ± 0.3 | 98.4 ± 0.4 | 98.2 ± 0.3 | 97.7 ± 0.3 |  |  |  |  |  | CC(C)Cc1ccc([C@@H](C)C(=O)OC[C@@H]2CCCN2)cc1.Cl [C-7, 2-pyrrolidinemethyl (R,S)-2-(p-isobutylphenyl)propionate•HCl salt] | 
6 | 98.5 ± 0.3 | 98.4 ± 0.4 | 98.3 ± 0.2 | 98.5 ± 0.1 | 97.9 ± 0.3 | 98.0 ± 0.3 | 98.2 ± 0.4 | 98.3 ± 0.3 | 98.4 ± 0.3 | 98.4 ± 0.3 | 98.3 ± 0.3 | 98.3 ± 0.3 | 98.2 ± 0.4 | 98.0 ± 0.3 | 97.8 ± 0.4 | 98.4 ± 0.1 |  |  |  |  | CCCCN(CCCC)CCOC(=O)C(C)c1ccc(CC(C)C)cc1.Cl (racemic) [C-6, 2-(dibutylamino)ethyl (R,S)-2-(p-isobutylphenyl)propionate•HCl salt] | Purity ([1]; 18 month): 98.3 ± 0.3
